The test has as its target wild-type full-length desmin (recombinant) (UniProt P17661 1-470). The experiment in a line: ELISA. For orientation: In an ELISA, binding on a coated surface is turned into a signal by an enzyme label.

Experimental findings from PMC5170609 (Molecular Biology of the Cell, 2016) are described below.

B1: His-nebulette amino terminal end through module 6 (recombinant) (domain or fragment)
chain: MRVPVFEDIKDETEEEKIGEEENEEDQVFYKPVIEDLSMELARKCTELISDIRYKEEFKKSKDKCTFVTDSPMLNHVKNIGAFISEAKYKGTIKADLSNSLYKRMPATIDSVFAGEVTQLQSEVAYKQKHDAAKGFSDYAHMKEPPEVKHAMEVNKHQSNISYRKDVQDTHTYSAELDRPDIKMATQISKIISNAEYKKGQGIMNKEPAVIGRPDFEHAVEASKLSSQIKYKEKFDNEMK
A word on the Kd: it is a measure of binding affinity in units of concentration. With B1, the Kd was in the range of 12 to 19 nM.
